The experiment addresses T1, CCR2 (Homo sapiens, UniProt P41597).
T1 construct: host or cells: THP-1 human monocytic cells
T1 sequence (P41597 1-360 isoform P41597-2): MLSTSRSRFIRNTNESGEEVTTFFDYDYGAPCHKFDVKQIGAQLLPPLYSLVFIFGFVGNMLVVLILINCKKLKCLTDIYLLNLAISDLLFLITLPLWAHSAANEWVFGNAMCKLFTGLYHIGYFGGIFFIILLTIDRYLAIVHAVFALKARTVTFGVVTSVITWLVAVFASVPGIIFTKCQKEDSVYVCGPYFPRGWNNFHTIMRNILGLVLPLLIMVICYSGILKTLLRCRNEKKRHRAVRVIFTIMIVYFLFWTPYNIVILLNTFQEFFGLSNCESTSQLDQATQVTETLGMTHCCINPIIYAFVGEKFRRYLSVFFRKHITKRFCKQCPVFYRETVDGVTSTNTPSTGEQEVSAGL
Nature of the experiment: MCP-1 Receptor Binding Assay in THP-1 Cells. The procedure:
MCP-1 Receptor Binding Assay in THP-1 Cells
Human monocytic cell line THP-1 cells were obtained from American Type Culture Collection (Manassas, Va., USA). […] The cell density was maintained […].
1 μM cold MCP-1 was used for nonspecific binding.

For two compounds, IC50 results are on record in patent US8513229B2, “4-Azetidinyl-1-phenyl-cyclohexane antagonists of CCR2” (Janssen Pharmaceutica NV, priority 2009, dated 2013).

Each structure is given as a SMILES string.

As to `CN(C)c1cccc(C2(O)CCC(N3CC(NC(=O)CNC(=O)c4cccc(C(F)(F)F)c4)C3)CC2)c1` (single isomer, unassigned) [Example 39a, N-({1-[4-(3-Dimethylamino-phenyl)-4-hydroxy-cyclohexyl]-azetidin-3-ylcarbamoyl}-methyl)-3-trifluoromethyl-benzamide], the IC50 turned out to be 15 nM. This lies in the double-digit nanomolar range.

Consider `COC(=O)c1ccc(C2CCC(N3CC(NC(=O)CNC(=O)c4cccc(C(F)(F)F)c4)C3)CC2)cc1` (centres unmarked) [Example 9, 4-(4-{3-[2-(3-Trifluoromethyl-benzoylamino)-acetylamino]-azetidin-1-yl}-cyclohexyl)-benzoic acid methyl ester], for which the IC50 was found to be 80 nM.

As a reminder, the IC50 is the midpoint of a concentration-inhibition curve. Lower therefore signals greater potency.
